Results published in publication PMC4490028 (Cancer research, 2015).

How the values were obtained:
Oatp1a/1b;Abcc2;Abcc3 = settings: after oral sorafenib 10 mg/kg, Oatp1a/1b;Abcc2;Abcc3(−/−) mice
[1] = type: in vivo, mouse; settings: oral SG 10 mg/kg, initial study
Oatp1a/1b;Abcc2 = settings: after oral sorafenib 10 mg/kg, Oatp1a/1b;Abcc2(−/−) mice
Oatp1a/1b;Abcc3 = assay: Plasma and liver pharmacokinetics after oral sorafenib in Oatp1a/1b; type: in vivo, mouse; settings: after oral sorafenib 10 mg/kg, Oatp1a/1b;Abcc3(−/−) mice
Oatp1a/1b = assay: as above; type: in vivo, mouse; settings: after oral sorafenib 10 mg/kg, Oatp1a/1b(−/−) mice
[2] = Ex vivo microsomal incubation of sorafenib, rat liver microsomes; type: in vitro ADME; settings: microsomes 1 mg/ml, 10 µM sorafenib, 60 min
[3] = tested on: mouse intestinal β-glucuronidases; assay: Ex vivo cecal incubations of SG; type: in vitro ADME; settings: SG 2 µM
Abcc3 = assay: Plasma and liver pharmacokinetics after oral sorafenib in Abcc3; type: in vivo, mouse; settings: after oral sorafenib 10 mg/kg; Abcc3(−/−) mice

sorafenib-glucuronide [SG]
SG liver-to-plasma ratio compared to wildtype mice (Oatp1a/1b;Abcc2;Abcc3): decreased
SG plasma exposure, reduction compared to Oatp1a/1b;Abcc2(−/−) mice (Oatp1a/1b;Abcc2;Abcc3): 30%
increase in SG liver-to-plasma ratios compared to Oatp1a/1b;Abcc2(−/−) mice (Oatp1a/1b;Abcc2;Abcc3; at 2 hours): 1.7 fold
increase in absolute levels of SG in liver compared to Oatp1a/1b;Abcc2(−/−) mice (Oatp1a/1b;Abcc2;Abcc3; at 2 hours): 1.5 fold
time of elimination of SG from plasma [1]: 1 to 2 h
time of peak SG concentrations [1]: 15 min
SG liver-to-plasma ratio compared to wildtype mice (Oatp1a/1b;Abcc2): decreased
increase in plasma exposure of SG compared to Oatp1a/1b(−/−) mice (Oatp1a/1b;Abcc2): 12.7 fold
increase in plasma exposure of SG compared to wildtype mice (Oatp1a/1b;Abcc2): 909 fold
liver levels of SG, higher compared to wildtype mice (Oatp1a/1b;Abcc2; at 2 hours): 1.8 fold
SG levels in liver versus wildtype (Oatp1a/1b;Abcc3): only a slight increase
SG liver-to-plasma ratio versus wildtype (Oatp1a/1b;Abcc3): large decrease
partial reversal of the increase in SG plasma levels, versus Oatp1a/1b(−/−) mice (Oatp1a/1b;Abcc3): ~ 2 fold
increased plasma levels of SG versus wildtype, experiment terminated at 2 hours (Oatp1a/1b;Abcc3; 2 hours): 56 fold
SG levels in liver versus wildtype (Oatp1a/1b): only a slight increase
SG liver-to-plasma ratio versus wildtype (Oatp1a/1b): large decrease
increase in plasma levels of SG versus wildtype (Oatp1a/1b): ~ 60 fold
increased plasma levels of SG versus wildtype, experiment terminated at 2 hours (Oatp1a/1b; 2 hours): 125 fold
SG formation in rat liver microsomes (BLQ, assay limit of SG quantitation) [2]: < 0.26 pmol/min/mg
SG levels in crude suspension of cecal content ([3]; 6-hour period): time-dependent decrease
sorafenib formation from SG after heat-pretreatment of cecal samples ([3]; heat pre-treatment 65°C): abrogation
SG liver-to-plasma ratio relative to Abcc3-proficient counterpart (wildtype) (Abcc3): somewhat increased
plasma SG levels versus wildtype (Abcc3): did not lead to altered
